Test results published in publication PMC4769701, “Discovery and characterization of a high-affinity and high-specificity peptide ligand LXY30 for in vivo targeting of α3 integrin-expressing human tumors” (EJNMMI Research, 2016).

Protein sequences, listed by entry. Tags and fused reporters are not part of them. Residues count along the entry.
UniProt P26006, 33-872 limits assumed: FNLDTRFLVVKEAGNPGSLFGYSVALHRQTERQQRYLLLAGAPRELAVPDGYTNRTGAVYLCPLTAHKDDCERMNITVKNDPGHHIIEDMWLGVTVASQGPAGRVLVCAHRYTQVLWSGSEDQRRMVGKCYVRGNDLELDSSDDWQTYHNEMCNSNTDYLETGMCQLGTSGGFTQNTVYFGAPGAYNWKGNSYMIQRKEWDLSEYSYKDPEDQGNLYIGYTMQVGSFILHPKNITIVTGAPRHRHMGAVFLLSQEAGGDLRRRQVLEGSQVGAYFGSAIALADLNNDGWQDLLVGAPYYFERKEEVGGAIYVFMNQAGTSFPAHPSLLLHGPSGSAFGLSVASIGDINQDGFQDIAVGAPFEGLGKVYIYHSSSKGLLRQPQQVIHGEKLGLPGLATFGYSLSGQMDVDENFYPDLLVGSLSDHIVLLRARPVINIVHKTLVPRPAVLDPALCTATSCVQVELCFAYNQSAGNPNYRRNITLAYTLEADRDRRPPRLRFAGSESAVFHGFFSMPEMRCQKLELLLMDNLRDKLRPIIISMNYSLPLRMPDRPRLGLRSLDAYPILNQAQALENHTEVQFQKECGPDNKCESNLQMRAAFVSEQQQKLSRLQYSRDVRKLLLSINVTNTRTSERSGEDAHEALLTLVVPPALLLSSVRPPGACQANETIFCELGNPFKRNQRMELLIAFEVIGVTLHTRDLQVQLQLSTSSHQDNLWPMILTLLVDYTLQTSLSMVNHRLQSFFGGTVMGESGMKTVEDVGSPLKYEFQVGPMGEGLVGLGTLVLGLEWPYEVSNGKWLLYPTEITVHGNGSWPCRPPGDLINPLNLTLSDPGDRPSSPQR
UniProt P26006, 873-1051 partner limits assumed: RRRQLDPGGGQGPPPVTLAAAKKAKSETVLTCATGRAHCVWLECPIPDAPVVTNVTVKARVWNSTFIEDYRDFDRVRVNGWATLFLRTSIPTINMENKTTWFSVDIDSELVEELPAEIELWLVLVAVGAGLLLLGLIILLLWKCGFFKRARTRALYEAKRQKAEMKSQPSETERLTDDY

Target: T1, α3β1 integrin-expressing U-87MG glioblastoma cells (Homo sapiens, UniProt P26006)
T1 construct: we incubated U-87MG cells which express α3β1 integrin; endogenous in cells; host or cells: U-87MG human glioblastoma cells
Assay: biochemical
Details: series of concentrations competing with 0.5 μM LXY1-biotin binding to U-87MG cells
Description: Confluent tumor cells (80-90 %) were dissociated with 0.05 % trypsin-EDTA and neutralized with culture medium. To determine the expression of α3 and β1 integrins, 1 μg of anti-α3 or anti-β1 antibody was mixed with 1 million cells for 30 min, followed by anti-mouse IgG-PE incubation and flow cytometry (Coulter XL-MCL). […] Then each sample was washed three times with 1 mL PBS containing 1 % FBS. Samples thereafter were incubated with a 1:500 dilution of streptavidin-PE (1 mg/mL) for 30 min on ice followed by a single wash with 1 mL of PBS containing 1 % FBS. Finally, the samples in PBS were analyzed by flow cytometry. […] The mixture was then incubated with cancer cells followed by streptavidin-PE. Samples were analyzed by flow cytometry, and mean fluorescence intensity (MFI) was decided for each individual sample. […] For blocking experiments, the samples were incubated with non-biotinylated LXY30, anti-α3, or anti-β1 antibody for 30 min prior to incubation with 20 nM biotinylated LXY30. […] [table]

CC(C)C[C@@H]1NC(=O)CNC(=O)[C@@H](CC(=O)O)NC(=O)[C@H](N)CSSC[C@H](C(N)=O)NC(=O)[C@H](CC(N)=O)NC(=O)[C@@H]2C[C@@H](O)CN2C(=O)CNC1=O [LXY1, cdGLG-Hyp-Nc]
IC50: 3.5 ± 0.4 µM
